According to patent US7767398B2, “Means and methods for diagnosing and treating affective disorders” (Affectis Pharmaceuticals AG, priority 2003, dated 2010):

Test system: P2X7R
Format: in vivo, mouse
Details: paroxetine 28 days; immunohistochemistry
Experimental: The expression of P2X7R was further studied by immunohistochemistry of serial sections of complete mouse brains using a polyclonal antibody directed against an internal peptide of P2X7R (Santa Cruz Biotechnology). The brains from stress-free mice were shock frozen, cut into 16 μm slices and fixed with paraformaldehyde for 5 minutes. The sections were blocked for 30 minutes at room temperature with 1:10 horse serum. All antibodies were diluted in TBST buffer (Tris-buffered saline with 0.05% Tween-20). The first antibody was used in a dilution 1:200 and incubated overnight. All washes were performed with TBST buffer. As a secondary antibody, an anti-goat IgG biotinylated (Vector Laboratories) was used and detection was performed using the streptavidin-biotin-horse-radish peroxidase complex system (Vector Laboratories) in combination with diaminobencidine. Slides were counterstained with toluidine blue using standard procedures. The same procedure in the absence of the primary antibody was performed as a negative control. As a positive control to test the Preservation of the tissue was verified with an antibody specific for the protein Patched1 (Santa Cruz Biotechnology). Patched1 was used as positive control since it stains all relevant brain structures and is not affected by stress or antidepressants. Very specific staining pattern was detected, consistent with the specific subcellular localization of P2X7R in brain cells. Negative controls were completely devoid of signal.
The expression of P2X7R in the brains of mice under stress-free conditions, and mice under mild stress produced by the vehicle application, and mice under paroxetine treatment was evaluated using three different brains from each group. […] This effect was observed all along the hippocampus but was more evident in the polymorph layer near the dentate gyrus. […] Therefore, P2X7R expression is strongly regulated in two specific brain areas involved in depression and stress.
At the end of the experiment, the mice were sacrificed and the brains were examined to confirm the location and efficiency of the siRNA injections. For this purpose the brains were cut into sections and the slides were stained by immunohistochemistry using the above mentioned protocols. Brains from mice injected with the specific double stranded siRNA, with control double stranded RNA and with vehicle were examined in parallel. Under these conditions, the specific siRNA directed against P2X7R injected near the dentate gyrus induced on average an 80% inhibition of P2X7R protein expression as compared to the samples from mice injected with vehicle or with control double stranded RNA. […] This inhibition produced behavioural changes indicating a causative role for P2X7R in affective disorders.

`Fc1ccc([C@@H]2CCNC[C@H]2COc2ccc3c(c2)OCO3)cc1` [paroxetine] was tested, and the “P2X7R expression in ependymal cells” value was “No significant change”, the “P2X7R expression in the hippocampus” value was “marked stimulation above basal levels” and the “P2X7R expression in the olfactory bulb” value was “No significant change”. For the same compound, the “P2X7R expression in the periventricular nucleus of the hypothalamus” value was “slight inhibition” and the “P2X7R expression in the subcommissural organ” value was “remained unchanged”.
